Measured values as given in ChEMBL document CHEMBL1124315, “N- and 2-substituted N-(phenylsulfonyl)glycines as inhibitors of rat lens aldose reductase” (J Med Chem, 1989).

Biological target: Aldo-keto reductase family 1 member B1 (Rattus norvegicus, UniProt P07943)
Assay: Inhibitory concentration against aldose reductase obtained from rat lens
How it was run: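 Enzyme from frozen rat eye lenses, homogenized in distilled water, centrifuged, taken as the 40% ammonium sulfate supernatant. Assay in 0.1 M phosphate pH 6.2 with 0.104 mM NADPH and 10 mM DL-glyceraldehyde, started by substrate and read as NADPH loss at 340 nm for 3.0 min. Screened at 100 μM; ≥3 concentrations in duplicate; IC50 by least-squares fit of the linear log dose–response segment.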

Molecule O=C1NC(=O)[C@@]2(CCOc3ccc(F)cc32)N1 [SORBINIL] has an IC50 of 180 nM.
